Reference: US9023857B2, “Substituted 6-(2-aminobenzylamino)purine derivatives, their use as medicaments and preparations containing these compounds” (Univerzita Palackeho V Olomouci, priority 2009, dated 2015)

Test system: breast carcinoma MCF7
Assay: In vitro cytotoxic activity (Calcein AM, 72 hours), MCF7
Settings: Homo sapiens, MCF7, 72 h, read-out: Cytotoxicity IC50 MCF7

Question: How did the IC50 turn out when `Cn1cnc2c(NCc3ccccc3)nc(NCCO)nc21` [OC] was run?
Answer: 132 µM
